IC50 data for two molecules are collected here from US20220356174A1, “PYRIDIN-2-ONE COMPOUNDS USEFUL AS SMARCA2 ANTAGONISTS” (Epizyme, Inc., priority 2018, published 2022).

Amino acid sequences for entries named in this document (tags omitted).
UniProt P51532, whole entry: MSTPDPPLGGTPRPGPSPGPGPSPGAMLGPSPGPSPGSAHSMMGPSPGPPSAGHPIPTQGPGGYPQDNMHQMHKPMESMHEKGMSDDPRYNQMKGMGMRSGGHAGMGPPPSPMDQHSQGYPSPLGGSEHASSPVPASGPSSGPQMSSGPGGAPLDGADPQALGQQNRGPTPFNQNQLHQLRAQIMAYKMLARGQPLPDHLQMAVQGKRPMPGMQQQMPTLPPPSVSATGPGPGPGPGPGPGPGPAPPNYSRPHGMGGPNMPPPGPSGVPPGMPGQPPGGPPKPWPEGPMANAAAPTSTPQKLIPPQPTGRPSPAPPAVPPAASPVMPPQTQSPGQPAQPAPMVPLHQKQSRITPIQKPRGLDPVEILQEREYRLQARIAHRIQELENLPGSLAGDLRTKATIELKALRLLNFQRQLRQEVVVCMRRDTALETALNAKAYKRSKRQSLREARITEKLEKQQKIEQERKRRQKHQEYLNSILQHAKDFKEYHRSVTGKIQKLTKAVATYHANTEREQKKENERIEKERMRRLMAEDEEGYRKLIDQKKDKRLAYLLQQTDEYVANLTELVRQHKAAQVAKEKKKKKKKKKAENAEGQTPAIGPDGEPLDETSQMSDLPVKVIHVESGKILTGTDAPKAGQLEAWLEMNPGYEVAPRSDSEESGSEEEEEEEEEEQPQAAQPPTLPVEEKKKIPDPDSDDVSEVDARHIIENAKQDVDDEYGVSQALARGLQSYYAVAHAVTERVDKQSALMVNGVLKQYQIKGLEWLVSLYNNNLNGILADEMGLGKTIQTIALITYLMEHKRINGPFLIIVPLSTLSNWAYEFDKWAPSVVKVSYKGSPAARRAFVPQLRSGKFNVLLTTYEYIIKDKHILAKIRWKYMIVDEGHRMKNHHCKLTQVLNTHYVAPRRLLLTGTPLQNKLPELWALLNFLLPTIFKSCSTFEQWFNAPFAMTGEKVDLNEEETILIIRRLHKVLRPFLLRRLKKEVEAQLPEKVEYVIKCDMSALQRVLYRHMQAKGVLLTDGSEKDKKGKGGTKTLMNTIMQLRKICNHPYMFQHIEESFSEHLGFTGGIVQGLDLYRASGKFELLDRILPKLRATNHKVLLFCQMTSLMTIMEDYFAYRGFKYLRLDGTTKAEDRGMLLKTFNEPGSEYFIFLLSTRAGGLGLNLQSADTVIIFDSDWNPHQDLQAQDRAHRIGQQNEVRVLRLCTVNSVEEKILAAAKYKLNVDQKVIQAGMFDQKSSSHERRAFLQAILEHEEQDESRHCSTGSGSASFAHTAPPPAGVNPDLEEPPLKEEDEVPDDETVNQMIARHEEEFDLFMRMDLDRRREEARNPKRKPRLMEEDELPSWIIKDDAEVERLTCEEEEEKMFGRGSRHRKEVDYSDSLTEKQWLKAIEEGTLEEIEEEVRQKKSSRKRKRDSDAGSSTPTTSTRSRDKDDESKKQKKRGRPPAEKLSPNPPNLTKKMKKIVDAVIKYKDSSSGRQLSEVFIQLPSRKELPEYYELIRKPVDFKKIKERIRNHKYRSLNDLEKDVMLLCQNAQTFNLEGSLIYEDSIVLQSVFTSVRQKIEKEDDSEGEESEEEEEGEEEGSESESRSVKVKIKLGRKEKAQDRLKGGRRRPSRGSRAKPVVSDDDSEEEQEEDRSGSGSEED

This experiment addresses FL-SMARCA4 (Homo sapiens, UniProt P51532). Briefly: SMARCA4 ATPase activity assay (ADP-Glo, chicken mononucleosome substrate).

pIC50: −log10 of the molar value.

Regarding `O=C(Nc1cc(Cl)c(=O)n(CC(F)F)c1)c1cc(Cl)c(C(F)(F)F)s1` [Compound 79d], the pIC50 (FL-SMARCA4 IC50) is 6.51.
As to `CCn1cc(NC(=O)c2snc(Cl)c2Cl)ccc1=O` [Compound 34], the pIC50 (FL-SMARCA4 IC50, Table 3.2, ATPase assay, enzyme 5 nM, ATP 250 uM, chicken mononucleosome 10 nM, 30 min preincubation) was less than 4.30.
